Experimental data: patent publication US7294472B2, “Method for identifying modulators of G protein coupled receptor signaling” (Caden Biosciences, priority 2001, dated 2007)

Amino acid sequences for entries named in this document (tags omitted).
UniProt P02699, whole entry: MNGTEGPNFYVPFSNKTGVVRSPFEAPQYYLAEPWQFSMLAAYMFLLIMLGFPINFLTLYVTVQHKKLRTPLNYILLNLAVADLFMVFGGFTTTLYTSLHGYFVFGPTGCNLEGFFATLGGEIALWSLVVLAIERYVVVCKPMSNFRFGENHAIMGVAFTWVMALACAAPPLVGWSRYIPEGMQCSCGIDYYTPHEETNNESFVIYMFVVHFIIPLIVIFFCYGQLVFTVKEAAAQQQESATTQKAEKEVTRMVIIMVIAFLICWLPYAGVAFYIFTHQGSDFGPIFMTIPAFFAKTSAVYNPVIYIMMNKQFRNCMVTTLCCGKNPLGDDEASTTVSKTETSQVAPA

Assays:
rhodopsin [1] = molecular target: T1, rhodopsin (Bos taurus, UniProt P02699); assay: Competition ELISA: effect of small molecules on binding of MBP-8 to activated rhodopsin; details: for enhancement of MBP-8 binding to EDTA-washed rhodopsin (in words): MBP-8 binding curve with added compound; for EC50: read-out: Binding of MBP-8 EC50, effect of small molecule on the binding of MBP-8 to MII
Description: Competition ELISA assays were employed to screen a small molecule library (a 10,000 compound library representative of ChemDiv's Diverse Collection of drug-like molecules) for compounds that bind activated rhodopsin and increase/decrease the binding of MBP-8 high affinity peptide fusion protein. MBP 8 was selected based on its mid-range affinity. […] These types of screens may be used with libraries of any size, therefore it is possible to increase the size of the compound library by 10 fold or greater and continue screening for small molecule hits in a similar manner.
Two representative 96-well plates in which light-activated-rhodopsin-bound MBP-8 high-affinity peptide fusion proteins were assayed for competitive binding by 80 different compounds. Experiments were done in duplicate, and the results of the two separate plates averaged.
Dose response curves of MII (FIG. 24) indicate that both PL—0302 R3.C4 (σ), and heterotrimeric Gt (ν) stabilize the active form of rhodopsin. EDTA-washed rhodopsin (5 μM) was incubated in a 50 mM HEPES buffer, pH 8.2, with 100 mM NaCl, 1 mM MgCl2, and 1 mM DTT at 5.3° C., and “extra” MII was measured. For compounds that enhanced MBP-8 binding over 25% using the color coded readout, dose studies were performed to generate EC50 curves. Table XXII below provides the calculated EC50 for metarhodopsin II stabilization of each compound.
Small molecules also were tested for their ability to enhance the binding of MBP-8. PELM6 (the MBP control) and MBP-8 were plated on 96 well plates that contained EDTA-washed rhodopsin. A small molecule compound library was added, and the amount of pELM6 or MBP-8 that remained bound was measured. Standard methods were used.

rhodopsin [2] = molecular target: T1, rhodopsin; assay: "extra MII" assay: stabilization of metarhodopsin II
Description: Rhodopsin can be measured spectrophotometrically in many of its conformational states. The high affinity, biologically active rhodopsin state can be easily differentiated from its precursor, MI, by the “extra” MII assay. See Example 35. This assay relies on the observation that under conditions of high pH and low temperature, MII is stabilized in the presence of Gt and can be spectrophotometrically measured. The ability of the C-terminal peptide to stabilize Meta II in the same manner as the heterotrimeric Gt, provides the tools to investigate the structural basis of the interaction of G proteins with the agonist binding sites of activated receptors.
For the “extra MII” assay, EDTA-washed rhodopsin (Example 5; 5 μM) is incubated in a 50 mM HEPES buffer, pH 8.2, with 100 mM NaCl, 1 mM MgCl2, and 1 mM DTT at 5.3° C., in the absence or presence of varying concentrations of Gt340-350 analogs or Gt. […] A flash of light bleaching 10% of the rhodopsin is presented and after a 1 min incubation, a second spectrum is measured and the difference in spectrum calculated. “Extra” MII is calculated as the difference between the absorbance at 390 and 440. Dose response curves of MII stabilization by αt340350 (λ), mutant α340-350K341L(ν), and heterotrimeric Gt (v) were analyzed by non-linear regression using the program GraphPad PRISM and are shown in FIG. 23. […]

isolated rods = assay: Light response (membrane current) of isolated rods of dark-adapted salamander retina; details: 5 μM compound; depending on intensity of light flash
Experimental: To test the effects of the small molecules in cells, light response experiments were carried out on isolated rods from the dark-adapted retina of a salamander. Single rods were isolated by shredding a small piece of retina. Photoreceptors were mechanically isolated from the dark-adapted retinas and placed in a gravity-fed superfusion chamber on the stage of an inverted microscope. Membrane currents were recorded with a suction electrode as described by Baylor et al., (Baylor et al., J. Physiol. (Lond.). 288:589-611, 1979; Baylor et al. J. Physiol. (Lond.). 288:589-611, 1979) in Ringer solution containing 120 mM NaCl, 2.0 mM KCl, 2 mM NaHCO3, 1.6 mM MgCl2, 1.0 mM CaCl2, 10 mM glucose, and 3 mM HEPES, pH 7.6, as described by Rieke and Baylor, Biophys. J. 71:2553-2572, 1996. Membrane current collected by the suction electrode was amplified, low-pass filtered at 20 Hz (3 dB point; 8-pole Bessel low-pass), digitized at 100 Hz and stored on a computer for subsequent analysis. Light responses were elicited by 10-msecond flashes of 50-500 nm light. […]
Light stimuli were delivered from a dual beam optical bench. […] Salamander L, S, and ultraviolet-sensitive cones have peak sensitivities at 600 nm, 430 nm, and 360 nm (Makino and Dodd, J. Gen. Physiol. 108:27-34, 1996) and are readily identified by the relative amplitudes of their responses to 620 nm, 440 nm, and 380 nm lights. […]

| Compound | enhancement of MBP-8 binding to EDTA-washed rhodopsin (in words) (rhodopsin [1]) | EC50 (rhodopsin [1]) [µM] | stabilization of MII (in words) (rhodopsin [2]) | increase of peak light response (change in current) (isolated rods) |
| --- | --- | --- | --- | --- |
| Cc1cc(O)c(C(=O)c2ccccc2)cc1Br | ability to enhance MBP-8 binding | 0.96 |  |  |
| CCN1C(=O)C2C(c3ccccc3O)NC(Cc3c[nH]c4ccccc34)(C(=O)O)C2C1=O (stereo not shown) | ability to enhance MBP-8 binding | 5.12 |  |  |
| Cc1ccc(S(=O)(=O)Nc2c(-c3ccccc3)c3cc(Cl)ccc3[nH]c2=O)cc1 | ability to enhance MBP-8 binding | 10.1 |  |  |
| CC(=NNc1ccccc1C(=O)O)c1ccc(F)c(F)c1 | ability to enhance MBP-8 binding | 11.9 | stabilize the active form of rhodopsin | 20%-50% |
